C2C12 statin: protects C2C12 myotubes from simvastatin toxicity. AID 602340. 0.78% of 330,000 active. ATP luminescence, 48 h; scaled: DMSO 0, geranylgeraniol control 100. rescue of ATP level, % at 7.49 µM;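 active means mean ATP rescue above about 67%, or every replicate alone reaching that limit, limit read from the data, passing the limit was not always enough; inconclusive means no clear call, values can overlap the other calls; inactive means mean under the limit and some replicate under it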;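 further: myotubes were challenged with 10 µM simvastatin during compound exposure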
Yeast UUG start: modulators of start codon recognition fidelity in yeast; S. cerevisiae UUG-firefly luciferase reporter, luminescence/redox ratio; activity score, % at 18.7 µM; 0.13% of 350,000 active;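 active = replicate mean at a twofold rise or more, about +100% in these data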;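 also: firefly luciferase made from a UUG start codon reports start codon fidelity; reporter light over untreated wells divided by growth signal over untreated wells; some hits fall short of that in this replicate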
miR122 inh: blocks miR-122 activity in Huh7 sensor cells; 0.3% of 340,000 active; activation (reporter increase), % at 12.5 µM; Huh7 miR-122 Renilla luciferase sensor, 48 h; neutral wells = 0, positive control = 100;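 active means mean replicate activation score at least 90 and every replicate individually at or above 90; inconclusive means only one of the two criteria met; inactive means neither criterion met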;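 further: higher luciferase means less miR-122 activity so hits act as miR-122 inhibitors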
Cneo AK release: Cryptococcus neoformans lysis via adenylate kinase release | C. neoformans lysis, adenylate kinase release luminescence, 4 h; normalised: neutral wells 0, clomiphene wells 100 | lysis activity, % at 15 µM | 0.2% of 360,000 active | AID 651654;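 active means mean lysis activity across replicates of at least 80%, whatever share of replicates individually reach that level; inactive means mean lysis activity below 80%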
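Material – log-phase Cryptococcus neoformans yeast cells · Input – 5 × 10^6 yeast cells/mL · Medium – fresh YPD growth medium · Doses – single compound concentration per well · Timing – static 4 h at 37 °C with compound, 1 h detection · Detection – adenylate kinase release luminescence · Read-out – signal increase indicating cell lysis · Control set – Clomiphene as positive lysis control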
A number is an active result; 0 = inactive; ? = inconclusive; - = no result; [ ] = remark or other dose. The list is not random: actives were taken first. Their share in the collection is about 1.2%.

SMILES	C2C12 statin	Yeast UUG start	miR122 inh	Cneo AK release
CCCN1[C@H](C(=O)N2CCN(C)CC2)[C@@H](CO)[C@@H]2Cn3c(ccc(-c4ccccc4F)c3=O)[C@@H]21	0	-	-	0
Cc1noc(C)c1NC(=O)N[C@H]1CC[C@@H](CC(=O)Nc2ccc(-c3ccccc3)cc2)O[C@H]1CO	0	0	0	0
FC(F)(F)c1cccc(NC(=S)NCCc2ccccn2)c1	0	0	249	0
CN(C)S(=O)(=O)c1cccc(NC(=S)NCCc2ccccn2)c1	0	0	0	0
CCC(=O)N1[C@H](CO)[C@H](c2ccccc2)[C@@H]1CN(CC)C(=O)c1cccc(F)c1	0	0	250[16.7 µM]	99
CCC(=O)N1[C@H](CN(CC)C(=O)c2cccc(F)c2)[C@H](c2ccccc2)[C@@H]1CO	0	0	125[16.7 µM]	0
O=C(C[C@H]1CC[C@H](NC(=O)Nc2ccccc2F)[C@H](CO)O1)NCc1ccc(Cl)cc1	0	0	-	0
Cc1cc(=O)oc2c(CN3CCCCC3)c(O)c(Cl)cc12	97	0	0	0
Cc1cccc(CN2C(=O)/C(=C\c3ccc(C(=O)NCCCN4CCN(C)CC4)cc3)Oc3ccccc32)c1	0	0	0	0
CN1CCN(CCCNC(=O)c2ccc(/C=C3\Oc4ccccc4N(Cc4ccccc4F)C3=O)cc2)CC1	?	0	-	108
O=C(C[C@@H]1C=C[C@@H](NC(=O)Nc2ccc(C(F)(F)F)cc2)[C@H](CO)O1)NCCN1CCCC1	0	0	-	0
CN(O)/C=c1/ccc2c(n1)C(=O)C=CC=2	93	0	0	0
CC1CCN(c2ncnc3c2cnn3Cc2ccc(Cl)cc2)CC1	172	0	0	0
O=C(Nc1ccc(S(=O)(=O)N2CCCC2)cc1)c1ccc([N+](=O)[O-])o1	0	0	0	0
O=S(=O)(c1ccc(NC(=S)Nc2ccc(OC(F)F)cc2)cc1)N1CCOCC1	-	0	0	0
CCCCOCCCNC(=S)Nc1ccc(S(=O)(=O)N2CCOCC2)cc1	0	0	176	0
O=C(Nc1ccc(S(=O)(=O)N2CCOCC2)cc1)c1ccc([N+](=O)[O-])o1	88	0	0	0
Cc1noc(C)c1S(=O)(=O)Nc1ccc2c(c1)C(=O)N([C@H](C)CO)C[C@@H](C)[C@H](CN(C)Cc1ccc3c(c1)OCO3)OCCCC[C@@H](C)O2	-	0	0	0
COc1ccccc1-c1ccc2n(c1=O)C[C@@H]1[C@@H](CO)[C@H](C(=O)NCc3ccccc3F)N[C@H]21	0	-	0	0
COc1ccc(NC(=O)Nc2ccc3c(c2)C(=O)N([C@H](C)CO)C[C@@H](C)[C@H](CN(C)S(=O)(=O)c2ccccc2)OCCCC[C@@H](C)O3)cc1	-	0	0	0
CC1CC(C)CN(C(=O)c2ccc(NC(=O)c3ccc(=O)[nH]c3)cc2)C1 (centres undefined)	0	0	0	0
CC1CC(C)CN(S(=O)(=O)c2ccc(NC(=O)c3ccc(=O)[nH]c3)cc2)C1 (centres undefined)	0	0	102	0
CN(C)C(=O)C[C@@H]1CC[C@@H](NS(=O)(=O)c2ccccc2)[C@@H](CO)O1	0	0	0	0
COc1ccc(S(=O)(=O)N(C)C[C@@H]2Oc3cc(C#CC4CC4)ccc3S(=O)(=O)N([C@H](C)CO)C[C@H]2C)cc1	0	0	0	0
Cc1c(NC(=O)C(C#N)=C2CCCCC2)c(=O)n(-c2ccccc2)n1C	106	0	0	0
SMILES	C2C12 statin	Yeast UUG start	miR122 inh	Cneo AK release
Cc1nc(N)sc1-c1csc(N(C)c2ccc(O)cc2)n1	94	0	0	0
CC(=O)NCCn1c(SCc2cc(=O)n3cc(Cl)ccc3n2)nc2ccccc2c1=O	75	0	0	0
CCC(=O)N(C)C[C@H]1Oc2cc(C#CC(C)(C)O)ccc2S(=O)(=O)N([C@@H](C)CO)C[C@H]1C	0	0	0	0
CCC(=O)N(C)C[C@@H]1Oc2cc(C#CC(C)(C)O)ccc2S(=O)(=O)N([C@H](C)CO)C[C@H]1C	0	0	0	103
C[C@@H]1CN([C@H](C)CO)S(=O)(=O)c2ccc(C#CC(C)(C)O)cc2O[C@H]1CN(C)C(=O)CN(C)C	0	0	0	0
CCC(=O)N(C)C[C@H]1Oc2cc(C#CC(C)(C)O)ccc2S(=O)(=O)N([C@@H](C)CO)C[C@@H]1C	0	0	0	98
Cc1ccc(S(=O)(=O)N(C)C[C@H]2Oc3ccc(NC(=O)Nc4ccc(C(F)(F)F)cc4)cc3C(=O)N([C@@H](C)CO)C[C@H]2C)cc1	0	0	0	0
C[C@H](CO)N1C[C@H](C)[C@@H](CN(C)S(C)(=O)=O)Oc2cc(-c3ccc(F)cc3)ccc2S1(=O)=O	0	-	0	-
CCOC(=O)c1sc(Nc2ccccc2)nc1C	0	0	0	0
CCOC(=O)c1sc(Nc2nc3c(OC)cccc3s2)nc1C	106	0	0	0
O=C(CN(Cc1cccs1)S(=O)(=O)c1ccc(S(=O)(=O)NC2CCCCC2)cc1)Nc1ccccc1	-	0	132	0
CCCC#Cc1cnc2c(c1)C(=O)N([C@@H](C)CO)C[C@@H](C)[C@H](CN(C)C(=O)Nc1ccc(OC)cc1)O2	0	0	0	0
CO[C@H]1CN(C)C(=O)c2cc(NC(=O)Nc3cccc(F)c3)ccc2OC[C@H](C)N(C)C[C@H]1C	0	0	0	103
CCCN1C[C@@H](C)[C@H](OC)CN(C)C(=O)c2ccc(NC(=O)c3cccc(F)c3)cc2OC[C@@H]1C	0	0	-	115
COc1cc2nc(N(C)C)nc(N)c2cc1OC	78	0	0	0
O=C(C[C@@H]1CC[C@@H]2[C@H](COC[C@H](O)CN2Cc2nccs2)O1)NCc1ccc(F)cc1	0	-	0	0
CC(=O)Nc1cccc(-c2ccnc3c2CC(C)(C(=O)Nc2ccc(Cl)c(C(F)(F)F)c2)O3)c1 (centres undefined)	80	0	0	0
CC(=O)Nc1cccc(-c2ccnc3c2CC(C)(C(=O)Nc2ccc(F)c(Cl)c2)O3)c1 (centres undefined)	0	0	0	0
CO[C@@H]1CN(C)C(=O)c2cc(NC(=O)c3cc(C)on3)ccc2OC[C@@H](C)N(C(=O)C2CC2)C[C@@H]1C	0	0	0	0
Cc1ccc(S(=O)(=O)NNC(=O)c2snnc2C)cc1	128	0	0	0
Cc1nnsc1C(=O)NNS(=O)(=O)c1cc(C(F)(F)F)cc(C(F)(F)F)c1	0	-	0	-
O=c1oc2ccccc2c(Nc2cccc(O)c2)c1[N+](=O)[O-]	132	0	0	0
O=C(O)c1cccc(Nc2c([N+](=O)[O-])c(=O)oc3ccccc23)c1	0	0	0	0
COc1ccc(S(=O)(=O)N(C)C[C@@H]2Oc3ncc(C#CC4(O)CCCC4)cc3C(=O)N([C@@H](C)CO)C[C@H]2C)cc1	0	-	0	0
CCCNC(=O)C[C@H]1CC[C@@H]2[C@H](COc3ccc(NC(=O)CC)cc3C(=O)N2C)O1	0	0	0	0
Nc1nc2ccc(-c3nc4ccccc4o3)cc2s1	75	0	0	0
O=C(C[C@H]1C=C[C@H](NC(=O)Nc2ccc3c(c2)OCO3)[C@@H](CO)O1)NCc1ccc2c(c1)OCO2	0	0	-	0

Assay outcomes (PubChem)
